Columns and labels:
Format in all cases: cell-based, human
tumor cell lines = experiment: Tumor cell lines treated with IFN-β alone
Text: To test whether IFN-β induced by cGAMP mediates the suppression of tumor growth, we have treated the three tumor cell lines with either cGAMP or IFN-β alone.

leukemia cell line SR = experiment: MTT assay, SR; conditions: FIG. 8A (cGAMP), FIG. 8B (IFN-β)
[1] = test system: leukemia cell line CCRF-CEM; experiment: MTT assay, CCRF-CEM; conditions: control leukemia cell line (FIG. 8)

IFN-β: type I interferon used alone to treat tumor cell lines
growth suppression by IFN-β alone (tumor cell lines; two of the three tumor cell lines): suppressed the growth | potency compared with cGAMP (tumor cell lines; two tumor cell lines, at the concentrations tested): almost as potent as cGAMP | response of cell line to treatment, MTT (leukemia cell line SR): does not respond very well | response of cell line to treatment, MTT [1]: did not respond

Reference: patent US20180344758A1, “Method of Treating Cancer with cGAMP or cGAsMP” (LIPOGEN LLC, priority 2014, published 2018)
